The test system of assay [1] is Escherichia coli. Put plainly: PG labeling of live E. coli, fluorescence microscopy. It is filed as cell-based. The note with it: captured by azido/alkyne fluorophores.
Assay [2] relates to Bacillus subtilis. Put plainly: PG labeling of live B. subtilis, fluorescence microscopy. It is filed as cell-based. The note with it: captured by azido/alkyne fluorophores.

The source of these data is patent US10544444B2, “Compositions for in situ labeling of bacterial cell walls with fluorophores and methods of use thereof” (priority 2012, dated 2020).

Take `C[C@@H](NN=[N+]=[N-])C(=O)O`: the “labeling of E. coli after click capture” value in assay [1] is “labeled both E. coli and B. subtilis”. Further, the “labeling of B. subtilis after click capture” value in assay [2] is “labeled both E. coli and B. subtilis”.
